Measured values from patent US5382596A, “Substituted 2-aminotetralins” (priority 1993, dated 1995).

By UniProt entry, the sequences of proteins in these tests, tags left out.
UniProt P61168, whole entry: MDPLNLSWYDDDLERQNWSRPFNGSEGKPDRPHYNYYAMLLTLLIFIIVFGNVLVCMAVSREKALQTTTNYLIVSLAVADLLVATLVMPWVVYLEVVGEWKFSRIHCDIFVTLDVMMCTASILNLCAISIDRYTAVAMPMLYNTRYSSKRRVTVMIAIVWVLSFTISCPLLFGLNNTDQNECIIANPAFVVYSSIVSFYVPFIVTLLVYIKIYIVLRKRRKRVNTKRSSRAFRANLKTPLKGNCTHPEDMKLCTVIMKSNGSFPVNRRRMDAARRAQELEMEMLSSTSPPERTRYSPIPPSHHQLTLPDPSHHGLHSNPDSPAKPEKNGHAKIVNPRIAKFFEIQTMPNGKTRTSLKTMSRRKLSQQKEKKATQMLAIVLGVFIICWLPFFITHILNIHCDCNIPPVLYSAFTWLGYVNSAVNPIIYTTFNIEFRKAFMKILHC
UniProt P20288, whole entry: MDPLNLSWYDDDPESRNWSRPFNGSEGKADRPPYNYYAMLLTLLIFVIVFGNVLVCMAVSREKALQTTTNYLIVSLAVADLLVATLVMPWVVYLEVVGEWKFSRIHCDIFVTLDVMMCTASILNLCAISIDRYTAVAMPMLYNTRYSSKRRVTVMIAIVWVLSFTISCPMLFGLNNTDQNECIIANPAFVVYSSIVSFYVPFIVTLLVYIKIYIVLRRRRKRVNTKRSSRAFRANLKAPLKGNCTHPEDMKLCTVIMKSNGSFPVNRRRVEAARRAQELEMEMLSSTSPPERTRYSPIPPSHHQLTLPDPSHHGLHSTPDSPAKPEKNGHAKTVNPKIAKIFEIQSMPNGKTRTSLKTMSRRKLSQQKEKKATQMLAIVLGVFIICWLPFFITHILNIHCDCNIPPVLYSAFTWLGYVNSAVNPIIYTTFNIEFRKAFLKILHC

What was measured:
dopamine D2 receptor [1] = target: dopamine D2 receptor (Mus musculus, UniProt P61168); assay type: biochemical
Method: Vasa deferentia from male BALB/C mice weighing approximately 30 g were removed and placed in isolated organ baths containing magnesium-free modified Krebs-Henseleit solution which was gassed with 95% O2 and 5% CO2 and maintained at 37° C. Tissues were set up under resting tension of 0.5 g and stimulated electrically at 60 volts, 0.1 Hz and 1 msec duration to produce a series of twitch responses. Tissues were pretreated with propranolol (1 μM) to block β-adrenoceptors, idazoxan (3 μM) to block α2 -adrenoceptors receptors, and ascorbic acid (100 μM) for 60 min before the addition of test compound.

Dopamine D2 receptor [2] = target: Dopamine D2 receptor (Bos taurus, UniProt P20288); assay type: binding, bovine
Method: Membranes were prepared using a Brinkmann Polytron and collected by centrifugation. Membrane sources were bovine caudate (D2,D1) or rat cortex (α2). The membranes were washed, resuspended, and incubated at 37° C. for 30 min. in either the presence (rat cortex) of 1 μ/ml adenosine deaminase or absence (bovine caudate) of 0.1 μ/ml adenosine deaminase. Membranes were centrifuged, washed once and frozen at -70° C. until used. Immediately before use, the membranes were thawed, washed once, and resuspended to a final concentration of 0.5-2 mg/ml. Assays were initiated by addition of membranes. For D2 and D1 assays, the radioligands and conditions used were ^3 H-Spiperone (RT, 75 min.) and ^3 H-SCH23390 (37° C., 15 min.), respectively. For α2 assays, ^3 H-PAC (RT, 30 min.) was used Assays were terminated by filtration using a Brandel cell harvester over Whatman GF/B filters that had been pretreated with 0.1% polyethylenimine. […]

CCCN(CCOC)[C@H]1CCc2c(ccc(O)c2O)C1 [Example 4]
Specificity Ratio (a2 A50/D2 A50) (dopamine D2 receptor [1]): 71
Selectivity Ratio (D1 K1/D2 K1) (Dopamine D2 receptor [2]): 19
